These are literature values, as cited in US11612576B2 (Thiogenesis Therapeutics, Inc., priority 2017, dated 2023).

The subject of this data set is Plasmodium berghei ANKA strain. As to conditions: mice infected with Plasmodium berghei ANKA strain; cited from earlier work.

Turning to `CC(C)(CO)[C@@H](O)C(=O)NCCC(=O)NCCSSCCNC(=O)CCNC(=O)[C@H](O)C(C)(C)CO` [pantethine], the “cerebral syndrome in infected mice” value is “prevents the cerebral syndrome”.
